Earlier results, collected in patent US20250312408A1, “NAP FOR SEX-SPECIFIC TREATMENT OF DISEASES” (RAMOT AT TEL-AVIV UNIVERSITY LTD., priority 2021, published 2025).

Test system: patients with early Alzheimer's disease
Details: patients with early Alzheimer's disease (Ayton S.); cited from earlier work

Substance: aducanumab: FDA-approved drug, an anti-amyloid-β therapy for early Alzheimer's disease
- brain ventricular enlargement (side effect): progressive, dose-dependent ventricular enlargement
